# Data reported in paper PMC9629855, “Development of ASIC1a ligand-gated ion channel drug screening assays across multiple automated patch clamp platforms” (Frontiers in Molecular Neuroscience, 2022).
# Tests used:
# hASIC1a = biological target: T1, hASIC1a (Homo sapiens, UniProt P78348); format: cell-based; design: host or cells: CHO (tetracycline-inducible); settings: pH 6.5 agonist, QPatch 48 single hole
# T1 sequence (P78348 1-528): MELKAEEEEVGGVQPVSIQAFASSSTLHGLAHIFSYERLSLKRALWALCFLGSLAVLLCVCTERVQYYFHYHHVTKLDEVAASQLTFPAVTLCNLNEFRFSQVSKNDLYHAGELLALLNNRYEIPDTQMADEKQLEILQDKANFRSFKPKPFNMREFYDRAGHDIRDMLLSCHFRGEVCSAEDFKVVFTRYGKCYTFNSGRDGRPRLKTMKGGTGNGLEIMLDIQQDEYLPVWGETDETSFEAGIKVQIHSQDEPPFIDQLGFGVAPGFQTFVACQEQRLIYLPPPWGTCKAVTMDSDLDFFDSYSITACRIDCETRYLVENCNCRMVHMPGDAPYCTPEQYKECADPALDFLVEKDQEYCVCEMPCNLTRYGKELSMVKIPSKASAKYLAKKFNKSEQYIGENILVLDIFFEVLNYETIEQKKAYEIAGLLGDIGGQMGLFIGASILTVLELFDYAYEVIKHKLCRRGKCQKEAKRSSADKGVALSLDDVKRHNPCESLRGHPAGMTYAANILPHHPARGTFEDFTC
# Protocol: (§1) CHO hASIC1a cells were cultured according to vendor instructions (B-SYS GmbH) and HEK cells using standard in-house methods. Both cell lines were harvested using optimized protocols and re-suspended in serum-free media (Gibco CHO-S-SFM from Thermo Fisher Scientific for CHO cells, and Ex-Cell 302 from Merck Sigma-Aldrich for HEK cells) to obtain a suspension of cells with smooth membranes and little debris, before transfer to the automated cell hotel consisting of a 60 ml plastic container (Sophion SB2050) and a magnetic stir bar to prevent cell clumping. […] Cell capture, sealing and whole-cell access was achieved using optimized QPatch protocols before currents were recorded using a holding potential of −60 mV. […]
# (§2) Concentration-response xC50 curves from Patchliner and QPatch 48 experiments were calculated by plotting %inhibition (antagonists) or activation (pH) data against concentration in Prism software (GraphPad), using the variable sigmoidal dose-response function to fit the Hill equation with theoretical minimum block of 0% and maximum block of 100% and a free constant for Hill slope. […]
# [1] = tested on: endogenous proton-activated currents in HEK cells; format: cell-based, human
# Protocol: as §1, §2
# [2] = tested on: ASIC1b and ASIC1a/2a channels; design: method as in Liu et al., 2018; Cristofori-Armstrong et al., 2019; settings: desensitizing acidic pH; ref Liu et al., 2018; Cristofori-Armstrong et al., 2019; cited from earlier work
compound,measurement,setting,value
CC[C@H](C)[C@@H]1NC(=O)[C@@H](NC(=O)[C@H](CC(=O)O)NC(=O)[C@@H](N)CCC(=O)O)CSSC[C@@H]2NC(=O)[C@@H]3CSSC[C@@H](C(=O)N[C@H](C(=O)N4CCC[C@H]4C(=O)N[C@@H](CCCCN)C(=O)N[C@H](C(=O)N4CCC[C@H]4C(=O)N[C@@H](CCCCN)C(=O)N[C@H](C(=O)O)[C@@H](C)O)[C@@H](C)O)C(C)C)NC(=O)[C@H](C(C)C)NC(=O)[C@H](CCC(=O)O)NC(=O)[C@H](Cc4ccccc4)NC(=O)[C@H](CO)NC(=O)[C@H](CCCNC(=N)N)NC(=O)[C@H](CCCNC(=N)N)NC(=O)[C@H](CCCNC(=N)N)NC(=O)[C@H](CCCCN)NC(=O)[C@H](Cc4c[nH]c5ccccc45)NC(=O)[C@H](CSSC[C@H](NC(=O)CNC(=O)[C@H](CCCCN)NC(=O)[C@H](Cc4c[nH]c5ccccc45)NC(=O)[C@H](CCCCN)NC(=O)[C@@H]4CCCN4C1=O)C(=O)N[C@@H](C(C)C)C(=O)N[C@@H](CC(N)=O)C(=O)N[C@@H](CCCNC(=N)N)C(=O)N[C@@H](Cc1c[nH]cn1)C(=O)NCC(=O)N[C@@H](CC(=O)O)C(=O)N3)NC(=O)[C@H](CCC(=O)O)NC(=O)[C@H](CC(C)C)NC(=O)CNC(=O)[C@H](CCC(=O)O)NC2=O [PcTx1],Hill slope,hASIC1a,2.2
same,potentiation of endogenous pH-evoked responses,[1],no evidence for such modulation
same,mean inhibition at highest concentration tested,[1]; 30 nM PcTx1,below 50%
same,potency of potentiation relative to ASIC1a inhibition (lower),[2],~10 fold
